The source of these data is patent US20190352268A1, “CANNABINOID RECEPTOR MEDIATING COMPOUNDS” (The USA, as represented by the Secretary, Department of …, priority 2015, published 2019).

By Kp is commonly meant the ratio of the level in a tissue or fluid to that in plasma or blood.

This series can be described thus: Tissue levels (brain and plasma) after administration to mice. The following applies: mouse, in vivo, 10 mg/kg.

`C/C(N)=N\C(=N/S(=O)(=O)c1ccc(Cl)cc1)N1CC(c2ccccc2)C(c2ccc(Cl)cc2)=N1` (racemic) [Compound 2, rac-N-(1-aminoethylidene)-3-(4-chlorophenyl)-N-((4-chlorophenyl)sulfonyl)-4-phenyl-4,5-dihydro-1H-pyrazole-1-carboximidamide] had a Kp at 1 h of 0.03.
